## Ab-95 light chain CDR variants: yeast mating affinities

Antigen: PDVDLGDISGINAS, a 14-residue peptide of the SARS-CoV-2 spike HR2 region.

The variants keep the heavy chain, the linker and the frameworks of Ab-95 (scFv order VH, a 15-residue (Gly4Ser)3 linker, VL).
VH: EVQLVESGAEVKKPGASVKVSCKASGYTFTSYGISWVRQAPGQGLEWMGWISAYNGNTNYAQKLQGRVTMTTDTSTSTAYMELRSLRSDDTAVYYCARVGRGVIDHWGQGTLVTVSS
VL: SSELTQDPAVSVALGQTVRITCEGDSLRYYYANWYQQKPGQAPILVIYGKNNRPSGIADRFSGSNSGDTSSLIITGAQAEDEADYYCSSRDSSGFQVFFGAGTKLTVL

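Variants in AAYL52 differ from the parent at up to three CDR positions; double and triple changes were sampled at random. In AlphaSeq, yeast of one mating type display the scFv and yeast of the other type display the target. Mating (16 h, 30 °C) was followed by selection of diploids and sequencing of their barcodes. The ratio of observed to expected reads was calibrated, replicate by replicate, on BCL2-family standards whose Kd was known from biolayer interferometry. There are three technical replicates.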

Positions count from residue 1 of the parent VL; D25N puts N in place of D.
Numbers give log10(Kd / nM), so 0 is 1 nM and 3 is 1 µM. Smaller is tighter.
The mean shown is taken over the replicates in which the pair was detected.
"not detected" marks a missing value. The strain was present, yet no cells mated with the target were sequenced in any replicate, which points to weak or no binding.
Nonspecific signal, from three strains lacking the peptide, appeared in 28% of pairings of library AAYL52, centred on 3.91 (5% of these signals below 2.90); values are not corrected for it.
In this assay the parent's reference entry averaged 2.31; its copy inside this library read 2.25.

| changes | mean log10 Kd (nM) | seen in |
|---|---|---|
| D25N A32W S89K | not detected | 0/3 |
| A32L R53Y S88W | not detected | 0/3 |
| R28Y A32S N52S | 2.82 | 3/3 |
| N33V P54Y G94H | not detected | 0/3 |
| G24H R53E S92V | not detected | 0/3 |
| S26V L27H Y31E | 2.37 | 3/3 |
| L27Y K50I G94E | 4.08 | 1/3 |
| N52K R53L V97N | 3.31 | 3/3 |
| L27M P54M S88C | 3.77 | 3/3 |
| A32K N52F S93A | 3.44 | 3/3 |
| Y29F S88Y S89E | 3.22 | 2/3 |
| L27Q A32I F95G | not detected | 0/3 |
| E23K G49Q S55V | 2.98 | 3/3 |
| S55F S89Y Q96V | not detected | 0/3 |
| N52M S88I | 4.26 | 1/3 |
| A32T N52Q | 1.55 | 3/3 |
| A32N S89L | 3.15 | 3/3 |
| N33W P54I S92D | 3.72 | 2/3 |
| L27H Y29E S93R | 2.78 | 3/3 |
| L27E R28P Q96S | 4.12 | 2/3 |
| R28A N52T D91P | not detected | 0/3 |
| G24P Y31S F95R | 2.52 | 3/3 |
| S26H P54L R90F | 4.87 | 2/3 |
| Y29F K50G N52K | 2.09 | 3/3 |

Continued, with the values leading:

| mean log10 Kd (nM) | seen in | changes |
|---|---|---|
| 3.62 | 2/3 | S26C Y30P S55H |
| 4.31 | 2/3 | G49S K50R G94F |
| 3.79 | 3/3 | Y29N Y30I R53Q |
| 3.94 | 2/3 | R90L S92R F98A |
| 2.04 | 3/3 | Y31N P54N V97I |
| 2.59 | 3/3 | D91L S92R F95Q |
| not detected | 0/3 | G24V R53G S88M |
| 2.88 | 3/3 | L27N Y31T |
| 1.81 | 3/3 | Y31M N52D Q96T |
| 5.57 | 1/3 | Y30I S55L G94Q |
| 4.15 | 2/3 | Y30D S88L R90G |
| 3.86 | 2/3 | R28I R53Y Q96H |
| 3.89 | 1/3 | A32I S88I F95N |
| 1.47 | 3/3 | Y31P F98H |
| 3.99 | 1/3 | G24A R28W P54S |
| not detected | 0/3 | K50H R90I G94E |
| 3.28 | 1/3 | K50W R90K Q96P |
| 4.42 | 1/3 | E23F G24M D25R |
| 2.69 | 3/3 | D25P R28N S88L |
| 4.42 | 1/3 | S92L S93F F98T |
| 4.96 | 1/3 | G24N D25M K50H |
| not detected | 0/3 | L27K S93N Q96I |
| not detected | 0/3 | Y29P G49H S93W |
| not detected | 0/3 | R28E N51C R90L |
| 2.86 | 3/3 | N52I P54K S88Y |

Excerpt, the final 4 entries:

| changes | mean log10 Kd (nM) | seen in |
|---|---|---|
| L27K S93N Q96I | not detected | 0/3 |
| Y29P G49H S93W | not detected | 0/3 |
| R28E N51C R90L | not detected | 0/3 |
| N52I P54K S88Y | 2.86 | 3/3 |

Source: Engelhart et al. 2022 (doi:10.1038/s41597-022-01779-4), MIT Lincoln Laboratory and A-Alpha Bio; data file from the FLAb repository.